In patent US20130303507A1 (Novartis AG, priority 2011, published 2013):
“And” between values parts separate entries of the source, which are not always exact repeats. Equal values may be shown once.

Sequences of proteins named here, by UniProt entry; tags and fusion partners are left off.
UniProt P50750, whole entry: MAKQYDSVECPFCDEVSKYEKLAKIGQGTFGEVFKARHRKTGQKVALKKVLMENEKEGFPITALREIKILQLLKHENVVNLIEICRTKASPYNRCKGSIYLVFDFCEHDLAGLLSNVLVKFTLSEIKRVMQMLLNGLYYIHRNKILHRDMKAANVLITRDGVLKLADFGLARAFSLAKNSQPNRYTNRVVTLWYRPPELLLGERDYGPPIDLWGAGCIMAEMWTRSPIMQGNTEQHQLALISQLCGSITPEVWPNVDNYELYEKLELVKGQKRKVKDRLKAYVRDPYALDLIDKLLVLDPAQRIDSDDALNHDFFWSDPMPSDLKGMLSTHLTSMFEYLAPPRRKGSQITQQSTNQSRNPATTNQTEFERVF
UniProt O60563, whole entry partner: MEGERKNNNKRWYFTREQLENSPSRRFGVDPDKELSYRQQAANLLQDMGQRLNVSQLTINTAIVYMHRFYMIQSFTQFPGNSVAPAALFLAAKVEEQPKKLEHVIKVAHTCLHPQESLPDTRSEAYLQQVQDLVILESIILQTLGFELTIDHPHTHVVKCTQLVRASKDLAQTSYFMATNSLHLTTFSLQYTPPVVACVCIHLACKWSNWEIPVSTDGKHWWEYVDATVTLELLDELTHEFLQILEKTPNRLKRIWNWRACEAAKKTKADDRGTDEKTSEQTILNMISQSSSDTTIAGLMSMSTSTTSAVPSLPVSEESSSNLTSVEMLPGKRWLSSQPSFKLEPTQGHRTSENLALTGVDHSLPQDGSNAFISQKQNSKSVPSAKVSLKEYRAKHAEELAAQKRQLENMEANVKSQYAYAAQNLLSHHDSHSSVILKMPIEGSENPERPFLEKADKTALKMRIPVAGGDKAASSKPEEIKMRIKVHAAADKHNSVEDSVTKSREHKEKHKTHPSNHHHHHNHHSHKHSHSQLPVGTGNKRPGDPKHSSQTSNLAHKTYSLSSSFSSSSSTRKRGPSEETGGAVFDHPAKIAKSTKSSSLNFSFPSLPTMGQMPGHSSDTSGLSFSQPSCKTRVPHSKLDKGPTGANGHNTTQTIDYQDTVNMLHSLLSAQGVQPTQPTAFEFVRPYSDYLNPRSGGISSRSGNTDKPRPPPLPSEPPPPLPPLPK

Target: Cdk9/cyclinT1 (Homo sapiens, UniProt P50750)
Experiment: Cdk9/cyclinT1 Alpha Screen protocol
Conditions: read-out: CDK9_cyclinT1_AS2_IC50; neutral species; individual determinations

- IC50: 208 pM and 388 pM
SMILES: COC[C@@H](C)N[C@H]1CC[C@H](Nc2cc(-c3cccc(NCC4(C#N)CC4)n3)c(Cl)cn2)CC1 [Cmpd 400, 1-(((5′-chloro-2′-((trans-4-(((R)-1-methoxypropan-2-yl)amino)cyclohexyl)amino)-[2,4′-bipyridin]-6-yl)amino)methyl)cyclopropane-carbonitrile]
